Molecular target: P-gp (Homo sapiens, UniProt P08183)
Settings: hiPS-enterocytes cultured in M3-1 or M3-2

Protein sequences, listed by entry. Tags and fused reporters are not part of them.
UniProt P08183, whole entry: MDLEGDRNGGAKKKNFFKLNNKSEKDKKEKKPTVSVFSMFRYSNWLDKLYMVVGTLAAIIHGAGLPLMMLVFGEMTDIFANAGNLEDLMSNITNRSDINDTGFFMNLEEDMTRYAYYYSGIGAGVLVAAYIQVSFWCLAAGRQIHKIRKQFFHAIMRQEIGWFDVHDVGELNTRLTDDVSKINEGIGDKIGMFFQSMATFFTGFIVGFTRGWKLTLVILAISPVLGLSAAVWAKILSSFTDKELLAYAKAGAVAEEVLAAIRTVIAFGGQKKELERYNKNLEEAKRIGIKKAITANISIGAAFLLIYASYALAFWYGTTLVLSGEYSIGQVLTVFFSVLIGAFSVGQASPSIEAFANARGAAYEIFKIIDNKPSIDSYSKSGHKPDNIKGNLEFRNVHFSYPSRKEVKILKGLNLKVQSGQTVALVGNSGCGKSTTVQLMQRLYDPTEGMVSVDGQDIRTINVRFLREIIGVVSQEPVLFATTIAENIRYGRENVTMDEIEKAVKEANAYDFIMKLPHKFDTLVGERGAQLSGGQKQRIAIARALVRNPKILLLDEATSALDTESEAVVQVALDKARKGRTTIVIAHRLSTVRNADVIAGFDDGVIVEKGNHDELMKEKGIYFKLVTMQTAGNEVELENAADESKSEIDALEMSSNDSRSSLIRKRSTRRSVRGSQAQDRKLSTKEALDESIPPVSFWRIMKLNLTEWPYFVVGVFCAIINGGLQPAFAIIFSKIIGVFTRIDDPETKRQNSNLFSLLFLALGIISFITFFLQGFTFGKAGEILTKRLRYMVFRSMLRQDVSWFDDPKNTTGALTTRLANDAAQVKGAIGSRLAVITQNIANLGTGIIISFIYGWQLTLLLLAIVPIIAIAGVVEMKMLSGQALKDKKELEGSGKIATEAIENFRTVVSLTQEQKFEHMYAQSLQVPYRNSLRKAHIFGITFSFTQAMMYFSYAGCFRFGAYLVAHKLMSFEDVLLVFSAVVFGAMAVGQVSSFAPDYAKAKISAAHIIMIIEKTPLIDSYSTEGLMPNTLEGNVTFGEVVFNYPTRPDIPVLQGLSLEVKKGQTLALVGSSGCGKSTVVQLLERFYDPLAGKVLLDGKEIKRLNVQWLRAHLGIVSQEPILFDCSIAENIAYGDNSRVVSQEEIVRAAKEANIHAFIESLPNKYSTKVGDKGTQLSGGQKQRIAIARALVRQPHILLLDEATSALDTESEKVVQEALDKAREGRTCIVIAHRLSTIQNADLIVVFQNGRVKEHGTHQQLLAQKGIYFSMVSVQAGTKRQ

rhodamine 123
P-gp-mediated efflux of substrate: exhibited P-gp-mediated efflux transporter activity to excrete rhodamine 123 substrate

Source: patent US20210340500A1, “METHOD FOR PRODUCING INTESTINAL CELLS FROM PLURIPOTENT STEM CELLS” (TOKYO INSTITUTE OF TECHNOLOGY, priority 2018, published 2021)
